# Source: patent US20090025713A1, “Nebulised Antibiotics for Inhalation Therapy” (priority 2006, published 2009)
# Tested on: Calu-3 cells
# Assay: Cellular tolerability test: TEER of Calu-3 monolayers
# Type: cell-based, human
# Conditions: for TEER after 24 hours Mean [%]: after 24 h in cell culture following incubation; for TEER after 2 hours Mean [%]: in KRB
# Source text: In addition to the physicochemical properties of drug formulations and their stability, either as solution or dispersed systems, it is helpful to investigate the cellular tolerability of such drug formulations in a cell culture test system. For this purpose the bronchial cell line Calu-3 was used as an in vitro model for toxicity assessment. Calu-3 represents a human submucosal adenocarcinoma cell line that forms tight, polarized and well differentiated monolayers with apical microvilli and tight junctional complexes. In contrast to other cell lines, Calu-3 cells generate extracellular mucus. […] In addition, it has been shown that loss of monolayer integrity is paralleled by a decrease in TEER to values below 600Ω·cm^2 and an increase in permeability. […] Since toxicity is paralleled by a loss of the monolayer integrity, a decrease in TEER of more than 50% is indicative for the toxicity of a test compound. […] The Calu-3 cell tests offer the possibility to investigate potential effects of the drug substance as well as the influence of excipients or formulation constituents.
# TEER was determined in physiological Krebs Ringer buffer (KRB) for two hours after the application of the different formulations or excipients. A decrease of the measured resistance indicated an affection of intact epithelial cell-cell contacts (tight junctions), which is an extremely sensitive parameter to determine toxic effects. To assess whether such cell damage was reversible, the cells were incubated for 24 h in cell culture subsequently to the incubation with the test formulations.
substance,measurement,setting,value
Natrium EDTA,TEER after 24 hours Mean [%],conc. (undiluted),42%
same,TEER after 2 hours Mean [%],conc. (undiluted; stock concentration given with each formulation name),14%
same,TEER after 24 hours Mean [%],dilution 1:5,56%
same,TEER after 2 hours Mean [%],dilution 1:5,42%
same,TEER after 24 hours Mean [%],dilution 1:10,47%
same,TEER after 2 hours Mean [%],dilution 1:10,46%
